Test results as given in patent US8911805B2, “Calcium preparation and method of production thereof” (Toyo Suisan Kaisha, Ltd., priority 2010, dated 2014).

Assay: Test for confirming solubility rate (time until transparent in water)
Type: physicochemical
Conditions: 300 rpm, calcium concentration 50 mM

**Q.** Which “Dissolution time, Average” value (average of three runs, 50 mL DW) does the source give for calcium gluconate here?
**A.** 446.7 s

**Q.** What about the Dissolution time (single runs 1-3, 50 mL DW) of the same substance?
**A.** 450 s and 433 s and 457 s

Several values for one entry are separate records, joined by “and”; a condition that tells them apart may be missing. Equal values may be shown once.
